Laboratory results from ChEMBL document CHEMBL1148771, “Design and synthesis of HIV-1 protease inhibitors incorporating oxazolidinones as P2/P2' ligands in pseudosymmetric dipeptide isosteres” (J Med Chem, 2007).

biological target: Protease (Human immunodeficiency virus 1, UniProt Q9YQ12); experiment: Inhibition of Wild type HIV1 Protease by FRET based assay

Structure (SMILES)	Ki
CC(=O)N[C@H](C(=O)N[C@@H](Cc1ccccc1)C[C@H](O)[C@H](Cc1ccccc1)NC(=O)[C@H]1CN(c2ccccc2)C(=O)O1)C(C)C	131 nM
CC(C)[C@@H](C(=O)N[C@@H](Cc1ccccc1)C[C@H](O)[C@H](Cc1ccccc1)NC(=O)[C@@H]1CN(c2ccccc2)C(=O)O1)N1CCCNC1=O	2.04 nM
CC(=O)N[C@H](C(=O)N[C@@H](Cc1ccccc1)C[C@H](O)[C@H](Cc1ccccc1)NC(=O)[C@@H]1CN(c2ccccc2)C(=O)O1)C(C)C	0.85 nM
